In one assay the target is CXCR4 (Homo sapiens, UniProt P61073). Description: Calcium mobilization assay in MDA-MB-231 cells expressing CXCR4 alone. The assay is classed as cell-based. (In general: Calcium assays in cells follow changes in intracellular calcium, usually with a dye or a luminescent sensor.)
The next assay deals with CXCR4-ADRB2 heteromer (Homo sapiens, UniProt P07550+P61073). Description: Calcium mobilization assay, enhanced signaling of CXCR4-ADRB2 heteromer in MDA-MB-231 cells. Particulars: stimulated with CXCL12 20 nM and Salmeterol 1 μM.

By UniProt entry, the sequences of proteins in these tests, tags left out.
UniProt P61073, whole entry: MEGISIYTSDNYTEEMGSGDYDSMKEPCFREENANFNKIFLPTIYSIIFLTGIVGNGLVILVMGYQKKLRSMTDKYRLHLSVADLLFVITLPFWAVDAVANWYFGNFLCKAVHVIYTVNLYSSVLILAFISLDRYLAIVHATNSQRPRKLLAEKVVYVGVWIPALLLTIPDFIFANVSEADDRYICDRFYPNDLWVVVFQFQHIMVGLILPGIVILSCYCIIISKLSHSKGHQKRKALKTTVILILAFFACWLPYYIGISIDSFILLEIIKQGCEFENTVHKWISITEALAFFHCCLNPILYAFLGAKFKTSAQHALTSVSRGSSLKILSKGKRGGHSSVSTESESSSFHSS
UniProt P07550, whole entry: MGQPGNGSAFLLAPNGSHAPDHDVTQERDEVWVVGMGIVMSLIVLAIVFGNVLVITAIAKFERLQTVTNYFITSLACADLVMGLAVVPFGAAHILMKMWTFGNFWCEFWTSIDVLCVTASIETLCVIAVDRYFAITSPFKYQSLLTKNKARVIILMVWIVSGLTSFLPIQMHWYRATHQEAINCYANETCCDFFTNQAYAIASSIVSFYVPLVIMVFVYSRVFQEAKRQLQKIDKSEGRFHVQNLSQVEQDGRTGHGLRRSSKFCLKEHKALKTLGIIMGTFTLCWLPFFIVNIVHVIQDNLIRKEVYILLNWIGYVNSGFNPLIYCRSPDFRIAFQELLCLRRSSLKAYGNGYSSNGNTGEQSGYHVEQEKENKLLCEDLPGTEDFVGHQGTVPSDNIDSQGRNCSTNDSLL

This note sets out measurements from patent publication US11857600B2 (dated 2024).

In general, IC50 refers to the concentration that gives 50% inhibition.

With `NCCCCN(Cc1nc2ccccc2[nH]1)[C@H]1CCCc2cccnc21` [AMD070], the IC50 was found to be 43.4 ± 0.57 nM on CXCR4; 1.4 ± 2.2 nM on CXCR4-ADRB2 heteromer (CXCR4 + ADRB2 (+Carvedilol) IC50 of Ca2+ response, co-treated with Carvedilol 10 μM); 24.7 ± 8.88 nM on CXCR4-ADRB2 heteromer (CXCR4 + ADRB2 (−Carvedilol) IC50 of Ca2+ response, CXCR4 inhibitor only).
